# From patent publication US20260102359A1, “COMBINATION TREATMENT OF DERMAL AND TRANSDERMAL FIBROTIC DISEASES, DISORDERS AND ASSOCIATED PAIN AND INFLAMMATION” (ERESINA, LLC, priority 2022, published 2026)
# System: hDMFa myofibroblast cells
# Parameters: key to the marks not given beside the values
row,Substance,Compound Myofibroblast Cytotoxicity Activity
1,"Dovitinib (TKI-258,CHIR-258) [Cmpd 382]",++
2,tetrahydro-L-Biopterin (hydrochloride) [Cmpd 935],+++
3,Prostaglandin F2α [Cmpd 803],++++
